Biological target: human GlxI (Homo sapiens, UniProt Q04760)
Assay: Competitive inhibition constants (Kis) with human GlxI
Conditions: read-out: Ki, hGlxI; sodium phosphate buffer, 50 mM, pH 7, 25° C.; mean (±S.D.) triplicate

Amino acid sequences for entries named in this document (tags omitted). Residues count along the entry.
UniProt Q04760, 2-184 limits assumed: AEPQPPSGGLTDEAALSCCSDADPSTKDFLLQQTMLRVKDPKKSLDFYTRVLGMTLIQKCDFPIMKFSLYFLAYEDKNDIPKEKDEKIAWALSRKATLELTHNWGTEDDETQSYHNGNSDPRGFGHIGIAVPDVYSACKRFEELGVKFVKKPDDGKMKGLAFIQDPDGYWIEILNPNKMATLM

Ki: 744 nM
Compound: NCCC(=O)NCCC(=O)NCCC(=O)NCCC(=O)NCCC(=O)N[C@@H](CCC(=O)N[C@@H](CSC(=O)N(O)c1ccc(Cl)cc1)C(=O)NCC(=O)O)C(=O)O

— US7700560B2 (University of Maryland, Baltimore County, priority 2003, dated 2010)
